# Assay results reported in ChEMBL document CHEMBL1212704, “Structural and biochemical evidence for a boat-like transition state in beta-mannosidases” (Nat Chem Biol, 2008).
# Experiment: Inhibition of wild type Bacteroides thetaiotaomicron beta-mannosidase 2A expressed in Escherichia coli BL21 (DE3) at 37 degC and Ph 5.6 by 2,4-dinitrophenolate release assay
smiles,measurement,value
OC[C@H]1C[C@H]2[C@@H](O)[C@@H](O)[C@@]1(O)CN2Cc1ccccc1,Ki,13 µM
